Data published in patent publication US20220218680A1, “TREATMENTS OF HEREDITARY ANGIOEDEMA” (KALVISTA PHARMACEUTICALS LIMITED, priority 2019, published 2022).

Protein sequences, listed by entry. Tags and fused reporters are not part of them. Residues count along the entry.
UniProt P03952, 20-390 partner limits assumed: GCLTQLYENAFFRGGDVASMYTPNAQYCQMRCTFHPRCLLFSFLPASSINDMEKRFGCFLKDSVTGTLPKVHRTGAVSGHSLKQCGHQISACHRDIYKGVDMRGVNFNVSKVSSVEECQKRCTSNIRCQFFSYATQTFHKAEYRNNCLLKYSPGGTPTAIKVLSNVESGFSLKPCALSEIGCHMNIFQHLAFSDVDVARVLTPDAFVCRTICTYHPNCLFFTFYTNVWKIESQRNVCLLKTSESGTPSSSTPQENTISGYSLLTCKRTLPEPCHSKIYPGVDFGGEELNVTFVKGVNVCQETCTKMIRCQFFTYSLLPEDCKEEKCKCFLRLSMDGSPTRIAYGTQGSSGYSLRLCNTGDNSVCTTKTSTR
UniProt P03952, 391-638 limits assumed: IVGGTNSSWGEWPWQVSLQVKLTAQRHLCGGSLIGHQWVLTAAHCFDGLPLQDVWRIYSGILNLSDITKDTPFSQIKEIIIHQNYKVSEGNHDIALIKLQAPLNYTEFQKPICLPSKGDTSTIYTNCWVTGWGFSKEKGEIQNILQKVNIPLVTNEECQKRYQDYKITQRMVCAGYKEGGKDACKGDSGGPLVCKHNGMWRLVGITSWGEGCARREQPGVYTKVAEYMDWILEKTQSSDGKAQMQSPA

Biological target: T1, Plasma Kallikrein (Homo sapiens, UniProt P03952)
T1 construct: PD measurements were determined in dextran sulfate (DXS) stimulated undiluted plasma using a fluorogenic enzyme assay; from tissue; host or cells: undiluted plasma of healthy male volunteers after oral dosing, stimulated ex vivo with dextran sulfate
Assay: Phase 1 SAD / food effect: ex vivo PKa catalytic activity in DXS-stimulated undiluted plasma
Conditions: 600 mg tablet, fed state, by 30 minutes
Procedure: PD measurements were determined in dextran sulfate (DXS) stimulated undiluted plasma using a fluorogenic enzyme assay and capillary based HK cleavage immunoassay.
The time until appearance of detectable amidolytic enzyme activity in DXS-stimulated plasma (lag time) was calculated from the catalytic activity assay. The detection sensitivity of the rate of catalytic activity in plasma based on using a Spark (Tecan) fluorimeter is a fluorescence increase to reach 1ΔF unit/sec.

inhibition at 600 mg: > 90%
Structure (SMILES): COCc1nn(Cc2ccc(Cn3ccccc3=O)cc2)cc1C(=O)NCc1nccc(OC)c1F [compound of Formula A, N-[(3-fluoro-4-methoxypyridin-2-yl)methyl]-3-(methoxymethyl)-1-({4-[(2-oxopyridin-1-yl)methyl]phenyl}methyl)pyrazole-4-carboxamide]
